The record followed here is PubChem BioAssay AID504707 (The Scripps Research Institute Molecular Screening Center, 2011).

Chains of the proteins cited; added tags and fusions are not shown.
UniProt P00514, whole entry, looked up: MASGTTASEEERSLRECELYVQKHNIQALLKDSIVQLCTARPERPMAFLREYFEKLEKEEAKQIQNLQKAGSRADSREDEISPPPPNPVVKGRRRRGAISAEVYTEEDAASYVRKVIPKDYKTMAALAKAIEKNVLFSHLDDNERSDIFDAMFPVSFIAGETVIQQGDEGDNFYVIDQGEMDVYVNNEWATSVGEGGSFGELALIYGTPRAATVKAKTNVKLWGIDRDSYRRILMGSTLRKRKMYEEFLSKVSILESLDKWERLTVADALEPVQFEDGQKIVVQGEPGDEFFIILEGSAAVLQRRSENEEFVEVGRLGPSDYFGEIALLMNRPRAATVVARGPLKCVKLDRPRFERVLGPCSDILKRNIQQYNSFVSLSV

This is a selection; strong and weak results do not stand in their true shares. Calls of active or inactive are those of the source.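 How the source made its calls: active means percent activation above the mean of all tested compounds plus 3 SD (cut at about 19% in these data); inactive means the rest.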

The assay has as its target cAMP-dependent protein kinase type I-alpha regulatory subunit (Bos taurus) + cAMP-dependent protein kinase catalytic subunit beta (Mus musculus) (UniProt P00514+P68181). In words: compounds dissociating PKAc from R1A subunit – biochemical, fluorescence polarization, Cy5-IP20, bovine R1A, mouse PKAc, primary screen (AID 504707).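 Further: higher means more PKAc released from R1A so a rise in polarization.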 The conditions noted are these: PKA-R1A dissociation, at 11.4 µM, stronger effect = higher value, scaled: DMSO 0%, 113 µM cGMP 100%. Background: In fluorescence polarisation assays a small probe gives low polarisation when free and higher when bound to something large.
With `Nc1cccc([As](=O)(O)c2ccccc2)c1`, the activation was inactive: 0.87%.

Turning to `Cc1ccc(OCC(=O)OC2CN3CCC2CC3)cc1` (centres undefined), the activation was inactive: -14.1%.

`O=[As](O)(c1cccs1)c1cccs1`: the activation was inactive: -0.49%.

As for `NS(=O)(=O)c1cccc(NC(=O)COC(=O)C(O)(c2ccccc2)c2ccccc2)c1`, the activation is inactive: -3.02%.

For `O=P1(Nc2ccc(Br)cn2)COc2ccccc2OC1`, the activation was inactive: 4.91%.

Take `Cc1ccc(C(=O)OC2CN3CCC2CC3)cc1` (centres undefined): the activation was inactive: 0.28%.

For the compound `CC1CCC(C(C)C)C(OP(=O)(Nc2ccccn2)c2ccccc2)C1` (centres undefined), the activation was inactive: -19.3%.

For `Cc1nn(-c2ccccc2)c2c1P(=O)(N1CCOCC1)N(C)C(c1ccccc1)=N2` (centres undefined), the activation is inactive: -2.05%.

Regarding `CN(C)C1(CNC(=O)c2ccc(S(C)(=O)=O)cc2)CCCCC1`, the activation is inactive: -11%.

Take `CCCC1OP(=O)(Nc2ccccc2)OCC1CC` (centres undefined): the activation is inactive: 1.4%.

Turning to `O=C(/C=C/c1ccccc1)OC1CN2CCC1CC2` (centres undefined), the activation is inactive: -4.94%.

Consider `NC(=O)Nc1ccc([As](=O)(O)O)cc1`, for which the activation is inactive: -9.54%.

In the case of `CCOP1(=S)c2c(C)nn(CCC#N)c2N=C(c2ccc(F)cc2)N1C` (centres undefined), the activation is inactive: 3.52%.

Take `CN(C(=O)Cc1ccccc1)[C@@H]1CC[C@]2(CCCO2)C[C@H]1N1CCCC1`: the activation is inactive: -7.75%.

Consider `N#CCCN(C(=O)COC(=O)C(O)(c1ccccc1)c1ccccc1)c1ccc(F)cc1`, for which the activation was inactive: 7.45%.

As to `CN(C(=O)Cc1ccc(Cl)c(Cl)c1)[C@H]1CC[C@@]2(CCCO2)C[C@@H]1N1CCCC1`, the activation was inactive: -3.24%.

As for `O=[N+]([O-])c1ccc2c(c1)nnn2O`, the activation was inactive: -12%.

`CN(C)C(=O)c1cc([N+](=O)[O-])cc2c1-c1c(cc([N+](=O)[O-])cc1[N+](=O)[O-])C2=O`: the activation was inactive: 5.41%.

Regarding `O=P(Nc1nccs1)(Oc1ccccc1)Oc1ccccc1`, the activation was inactive: -6.14%.

Turning to `O=P(Nc1nccs1)(c1ccccc1)c1nc2ccccc2s1` (centres undefined), the activation is inactive: -5.5%.

On to `CCOP1(=S)c2c(C)nn(CCC#N)c2N=C(c2ccccc2F)N1C` (centres undefined), for which the activation was inactive: -5.7%.

In the case of `CS(=O)(=O)c1cc([N+](=O)[O-])c2no[n+]([O-])c2c1`, the activation was inactive: -4.52%.

As for `O=C(O)COc1ccc([As](=O)(O)O)cc1[N+](=O)[O-]`, the activation was inactive: 5.04%.

For `Nc1ccccc1[As](=O)(O)c1ccccc1`, the activation is inactive: -2.89%.

With `Cc1ccc(NCCc2c([N+](=O)[O-])cc([N+](=O)[O-])cc2[N+](=O)[O-])cc1`, the activation was inactive: 5.74%.

Regarding `Nc1cccc2c([As](=O)(O)O)cccc12`, the activation was inactive: -8.39%.

`CCCOP(=S)(Nc1nc(N)cc(=O)[nH]1)OCCC`: the activation is inactive: 2.78%.

As to `CCOP(=O)(Nc1cccc2ccccc12)OCC`, the activation is inactive: -17.5%.

As to `COc1cc(C2NCCC3(OCCO3)C2(C)C)cc(OC)c1OC` (centres undefined), the activation was inactive: 1.32%.

For the compound `O=C(OC1CN2CCC1CC2)c1ccc(Cl)cc1` (centres undefined), the activation was inactive: -0.55%.

With `CS(=O)(=O)c1ccc(Cl)c(NC(=O)COC(=O)C(O)(c2ccccc2)c2ccccc2)c1`, the activation was inactive: 0.76%.

As for `O=[As](O)(O)c1cccnc1`, the activation is inactive: 7.77%.

`COc1cc(C(=O)NCC2(N3CCOCC3)CCCCC2)cc(Cl)c1OC(C)C`: the activation is inactive: -7.42%.

As to `Cc1cccc(OCC(=O)OC2CN3CCC2CC3)c1` (centres undefined), the activation was inactive: -7.77%.

Take `O=[As](O)(c1cccc(O)c1)c1cccc(O)c1`: the activation was inactive: -6.36%.

In the case of `O=[N+]([O-])c1cc(Oc2ccc([N+](=O)[O-])cc2C(F)(F)F)cc([N+](=O)[O-])c1`, the activation was inactive: -0.12%.

For the compound `COc1ccc(N/C(=N/P(=O)(N2CCOCC2)N2CCOCC2)N2CCOCC2)cc1`, the activation was inactive: -4.42%.

For the compound `Cc1c2c(nc3ccccc13)SC(C(Cl)Cl)C2` (centres undefined), the activation was inactive: 5.33%.

With `Cc1cc(=O)[nH]c(N[N+](=O)[O-])n1`, the activation is inactive: -10.7%.

Turning to `O=C(OC1CN2CCC1CC2)C12CC3CC(CC(C3)C1)C2` (centres undefined), the activation was inactive: -4.41%.

As to `O=P1(N(CCCl)CCCl)Nc2ccccc2N1`, the activation is inactive: 0.5%.

Take `O=P1(N(CCCl)CCCl)OCCCN1CCCl` (centres undefined): the activation was inactive: 5.45%.

Turning to `COc1cc(I)ccc1[As](=O)(O)O`, the activation is inactive: 1.62%.

As for `COc1ccc2nc(NP(=O)(c3ccccc3)c3ccccc3)sc2c1`, the activation was inactive: -13.1%.

Turning to `ClCCSc1nnc(-c2cccnc2)o1`, the activation was inactive: -0.94%.

Turning to `COC(=O)C1(C)COP(=O)(N2CCCCCC2)OC1` (centres undefined), the activation was inactive: -4.21%.

Take `CC(C)c1ccc(OP(=O)(Nc2ccccn2)Oc2ccccc2F)cc1` (centres undefined): the activation was active: 19.3%.

In the case of `O=[N+]([O-])c1cc([N+](=O)[O-])c(-c2ccn[nH]2)s1`, the activation was inactive: 7.71%.

As to `CCN(CC)C(=S)SC(NC=O)C(Cl)(Cl)Cl` (centres undefined), the activation is inactive: 0.07%.

As to `O=C(OC1CN2CCC1CC2)c1cccc2[nH]cnc12` (centres undefined), the activation is inactive: -8.47%.

`O=[N+]([O-])c1ccc(-c2cc([N+](=O)[O-])c(O)c([N+](=O)[O-])c2)cc1`: the activation was inactive: 2.52%.

Consider `COc1cc(C(=O)NCC2(N3CCOCC3)CCCCC2)ccc1OCC(C)C`, for which the activation was inactive: -7.61%.

Take `C[As](=O)(O)c1cccc(C(=O)O)c1`: the activation was inactive: -10.5%.

Take `O=[As](O)(c1ccc(O)cc1)c1ccccc1O`: the activation was inactive: -1.94%.

On to `Cc1ccc(OP(=O)(Nc2ccc([N+](=O)[O-])cn2)Oc2ccc(C)cc2)cc1`, for which the activation was inactive: 5.96%.

In the case of `Cc1ccc2nc3c(c(C)c2c1)CC(C(Cl)Cl)S3` (centres undefined), the activation was inactive: -13.7%.

With `CCOC(=O)Nc1cccc([As](=O)(O)O)c1`, the activation is inactive: -0.99%.

Take `Cc1cc(SC(NC=O)C(Cl)(Cl)Cl)ncn1` (centres undefined): the activation is inactive: 0.43%.

On to `O=P(Nc1ccccn1)(c1cccc2ccccc12)c1cccc2ccccc12`, for which the activation is inactive: 0.87%.

As to `O=[N+]([O-])c1ccc(Nc2ccc(Oc3ccc([N+](=O)[O-])cc3[N+](=O)[O-])cc2)c([N+](=O)[O-])c1`, the activation was inactive: 4.42%.

As to `O=C(O)C(O)c1ccc(N(CCCl)CCCl)cc1` (centres undefined), the activation was inactive: 6.54%.

As to `CCOC(=O)Nc1ccc([As](=O)(O)O)c(O)c1`, the activation is inactive: -0.84%.

Regarding `CC1CCNP(=O)(N(CCCl)CCCl)O1` (centres undefined), the activation is inactive: -2.7%.

Turning to `COP(=O)(OC)N1CC1c1ccccc1` (centres undefined), the activation was inactive: 2.55%.

Turning to `Cc1cc(SC(NC(=O)c2ccccc2)C(Cl)(Cl)Cl)nc(C(C)C)n1` (centres undefined), the activation is inactive: 13.5%.

On to `CCCCOc1ccc(C(=O)NCC2(N3CCCCC3)CCCCC2)cc1OC`, for which the activation was inactive: 0.85%.

In the case of `CSc1ccc(Nc2c([N+](=O)[O-])cc([N+](=O)[O-])cc2[N+](=O)[O-])cc1`, the activation was inactive: -3.75%.

Consider `O=C(OC1CN2CCC1CC2)c1cccc([N+](=O)[O-])c1` (centres undefined), for which the activation is inactive: -6.57%.

As for `CCOC(=O)c1ccc(NC(=O)C(C)(CCl)SC)cc1` (centres undefined), the activation was inactive: -1.91%.

For `CCC(C)N(CC(C)C)C(=S)SC(NC(C)=O)C(Cl)(Cl)Cl` (centres undefined), the activation was inactive: 3.64%.

In the case of `COP1(=S)c2c(C)nn(CCC#N)c2N=C(c2ccc(F)cc2)N1C` (centres undefined), the activation is inactive: 5.13%.

On to `O=C(O)C(=O)c1ccc(N(CCCl)CCCl)cc1`, for which the activation is inactive: -1.28%.

As for `O=C(Nc1ccncc1[N+](=O)[O-])c1ccc([N+](=O)[O-])cc1[N+](=O)[O-]`, the activation is inactive: -1.74%.

As for `O=C(COc1ccccc1)OC1CN2CCC1CC2` (centres undefined), the activation is inactive: 4.73%.
